Series [1] deals with T1, Nectin-4 (Homo sapiens, UniProt Q96NY8). In words: DELFIA whole cell binding assay (KD, Ki), Nectin-4. As to conditions: read-out: DELFIA Ki, Table 4B.
The target of series [2] is T1, Nectin-4. Nature of the series: Surface plasmon resonance binding, Nectin-4. As to conditions: read-out: SPR KD, Table 4B.
Series [3] is described as follows: In vitro metabolic stability in mouse plasma.
The nature of series [4]: In vivo biodistribution of 111In-labeled test articles, SPECT/CT, kidney. The settings on record: FIG. 1; Nectin-4 charge variant conjugates; 4 and 24 hours post-administration.
Series [5] is described as follows: Radionuclide incorporation of DOTA-compounds (thin-layer chromatography). The settings on record: Indium-111.

Protein sequences, listed by entry. Tags and fused reporters are not part of them. Residues count along the entry.
UniProt Q96NY8, 32-510 limits assumed: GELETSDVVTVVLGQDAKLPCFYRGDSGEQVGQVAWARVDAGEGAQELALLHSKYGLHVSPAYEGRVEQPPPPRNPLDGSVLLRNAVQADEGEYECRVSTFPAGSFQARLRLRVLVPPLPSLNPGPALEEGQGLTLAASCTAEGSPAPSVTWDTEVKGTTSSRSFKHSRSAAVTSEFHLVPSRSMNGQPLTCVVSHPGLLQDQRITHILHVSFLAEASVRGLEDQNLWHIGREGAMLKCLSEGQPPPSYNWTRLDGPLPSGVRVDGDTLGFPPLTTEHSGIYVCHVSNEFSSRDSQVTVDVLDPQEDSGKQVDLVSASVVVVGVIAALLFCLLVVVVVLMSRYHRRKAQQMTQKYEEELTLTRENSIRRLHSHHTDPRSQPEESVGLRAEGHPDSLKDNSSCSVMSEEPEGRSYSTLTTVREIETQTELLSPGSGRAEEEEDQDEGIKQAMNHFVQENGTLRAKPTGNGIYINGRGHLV

A value given as a limit tells only on which side of the number the result lay.

Consider `CCCC[C@H](NC(=O)[C@@H](NC(=O)[C@H](CCC(N)=O)NC(=O)CNC(=O)[C@H](Cc1c[nH]cn1)NC(=O)[C@@H](NC(=O)[C@H](CC(C)C)NC(=O)[C@H](CC(N)=O)NC(=O)[C@@H]1CCCN1C(=O)[C@H](CC(C)C)NC(=O)[C@H](Cc1c[nH]c2ccccc12)NC(=O)[C@@H](NC(=O)[C@@H](NC(=O)[C@H](CCC(=O)O)NC(=O)[C@H](CO)NC(=O)[C@H](CC(C)C)NC(=O)[C@H](C)NC(=O)[C@H](C)NC(=O)[C@@H](NC(=O)[C@H](CCCCN)NC(=O)[C@H](CCC(=O)O)NC(=O)[C@H](CCCCN)NC(=O)[C@H](C)NC(=O)[C@H](Cc1ccc(O)cc1)NC(=O)[C@H](CCCCN)NC(=O)[C@H](C)NC(=O)[C@H](CCC(=O)O)NC(=O)[C@H](C)NC(=O)CCOCCOCCOCCOCCNC(=O)CN(C)C(=O)CNC(=O)CNC(=O)CCOCCOCCOCCOCCNC(=O)CN1CCN(CC(=O)O)CCN(CC(=O)O)CCN(CC(=O)O)CC1)[C@@H](C)CC)[C@@H](C)CC)[C@@H](C)CC)[C@@H](C)O)[C@@H](C)CC)C(=O)N[C@@H](C)C(=O)N[C@@H](Cc1ccccc1)C(=O)N[C@H](C(=O)N[C@@H](C)C(=O)N[C@@H](C)C(=O)N[C@@H](CC(C)C)C(=O)N[C@@H](CC(N)=O)C(=O)N[C@@H](CC(=O)O)C(=O)N[C@@H](CC(=O)O)C(=O)N1CCC[C@H]1C(=O)N[C@@H](CO)C(=O)N[C@@H](CCC(N)=O)C(=O)N[C@@H](CO)C(=O)N[C@@H](CO)C(=O)N[C@@H](CCC(=O)O)C(=O)N[C@@H](CC(C)C)C(=O)N[C@@H](CC(C)C)C(=O)N[C@@H](CO)C(=O)N[C@@H](CCC(=O)O)C(=O)N[C@@H](C)C(=O)N[C@@H](CCCCN)C(=O)N[C@@H](CCCCN)C(=O)N[C@@H](CC(C)C)C(=O)N[C@@H](CC(N)=O)C(=O)N[C@@H](CC(=O)O)C(=O)N[C@@H](CO)C(=O)N[C@@H](CCC(N)=O)C(=O)N[C@@H](C)C(=O)N1CCC[C@H]1C(=O)N[C@@H](CCCCN)C(N)=O)[C@@H](C)CC.[In+3]`, for which, in series [1], the Ki came to 10 nM. In addition, the Kd in series [2] is 2.69 nM.
On to `CC[C@H](C)[C@@H]1NC(=O)[C@H](CC(=O)O)NC(=O)CNC(=O)CNC(=O)[C@H](CCCNC(N)=O)NC(=O)[C@H](CC(C)C)NC(=O)[C@H](CCCNC(N)=O)NC(=O)[C@H](CCCCNC(C)=O)NC(=O)[C@H](CC(C)C)NC(=O)[C@H](C)NC(=O)[C@H]([C@@H](C)O)NC(=O)[C@H](Cc2ccccc2)NC(=O)[C@H](Cc2ccccc2)NC(=O)[C@H](CCC(=O)O)NC(=O)[C@H](CCC(=O)O)NC(=O)[C@H](CC(=O)O)NC(=O)[C@H](Cc2ccc(O)cc2)NC(=O)[C@H](CCC(=O)O)NC(=O)[C@@H](NC(=O)CCOCCOCCOCCOCCNC(=O)CN2CCN(CC(=O)O)CCN(CC(=O)O)CCN(CC(=O)O)CC2)CSSC[C@@H]2NC(=O)[C@H](CC(C)C)NC(=O)[C@H](CCCCN)NC(=O)[C@@H]3CCCN3C(=O)[C@H](C(C)C)NC(=O)[C@H](CCCCN)NC(=O)[C@H](CCCCN)NC(=O)[C@H](Cc3ccccc3)NC(=O)[C@H](CCCCN)NC(=O)[C@H](CCCCN)NC(=O)[C@H](CCCCN)NC(=O)[C@H]([C@@H](C)CC)NC(=O)[C@H](Cc3ccc(O)cc3)NC(=O)[C@H](Cc3ccc(O)cc3)NC(=O)[C@H](CSSC[C@@H](C(N)=O)NC(=O)CNC(=O)[C@H](CC(C)C)NC(=O)[C@H](CCCCNC(C)=O)NC(=O)[C@H](CC(=O)O)NC(=O)[C@H](CC(C)C)NC(=O)[C@H]([C@@H](C)CC)NC(=O)[C@H](CCC(=O)O)NC(=O)[C@H](CCC(=O)O)NC(=O)[C@H]([C@@H](C)CC)NC2=O)NC1=O`, for which, in series [3], the “mPlasma (t½ hr)” value is more than 12 h. Further, the kidney retention entry in series [4] is given as “Reduced levels of kidney retention”. Also, the “% radionuclide incorporation” value in series [5] stood at 98%.

Source of the values: patent US20260382774A1, “DECREASED RETENTION OF MINIPROTEINS IN KIDNEY” (published 2026).
